Experimental data taken from PubChem BioAssay AID504692 (The Scripps Research Institute Molecular Screening Center, 2011).
Only a part is listed here, and it is no random draw. Calls of active or inactive are those of the source. Cut-off read from the data, not from the text of the source: active = activation mostly above about 9.5% (no sharp cut-off); inactive = mostly below about 7.6%.

The chains behind the UniProt entries cited, without tags or fusion partners.
UniProt P47898, whole entry, looked up: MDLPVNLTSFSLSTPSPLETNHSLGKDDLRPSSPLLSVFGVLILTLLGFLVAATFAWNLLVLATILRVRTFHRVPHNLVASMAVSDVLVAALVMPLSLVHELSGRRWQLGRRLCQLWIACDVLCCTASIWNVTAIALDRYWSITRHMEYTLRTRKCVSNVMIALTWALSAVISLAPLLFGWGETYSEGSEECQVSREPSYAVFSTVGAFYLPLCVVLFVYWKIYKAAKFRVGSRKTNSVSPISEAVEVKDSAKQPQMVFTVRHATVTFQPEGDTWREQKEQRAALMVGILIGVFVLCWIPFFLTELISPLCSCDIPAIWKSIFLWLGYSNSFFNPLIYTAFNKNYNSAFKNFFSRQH

Target: 5-hydroxytryptamine receptor 5A (Homo sapiens) (UniProt P47898)
Experiment: activation of human 5-HT5A receptor – cell-based, luminescence, full-deck HTS, counter-screen for OPRM1-OPRD1 heterodimer agonist project, primary screen (AID 504692);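 note: 0% = cells with vehicle only and 100% = reference agonist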
Details: HTR5A agonist assay, at 9.3 µM, hits give high values

Row | Compound | activation
1 | NS(=O)(=O)c1cccc(NC(=O)COC(=O)C(O)(c2ccccc2)c2ccccc2)c1 | inactive: -1.41%
2 | O=P1(Nc2ccc(Br)cn2)COc2ccccc2OC1 | inactive: -1.52%
3 | Cc1ccc2c(c1)C1CN(C)CCC1N2C(=O)c1ccccc1NS(=O)(=O)c1ccc(F)cc1C (stereo unspecified) | inactive: -1.81%
4 | COC(=O)[C@H](Cc1ccc(O)cc1)NC(=O)Cn1cnc2c(OCc3ccccc3)ncnc21 | inactive: -1.13%
5 | CC(C)C[C@H](NC(=O)N1CCn2c1nc1ccccc12)C(=O)NCc1ccco1 | inactive: -2.21%
6 | Cc1ccc(S(=O)(=O)N2CCN(C(=O)Cn3cnc4c3c(=O)n(C)c(=O)n4C)CC2)cc1C | inactive: -3.21%
7 | Cn1c(CNc2nc3ccccc3n2CCN2CCCCC2)nc2ccccc21 | inactive: -2.23%
8 | Cc1ccc2c(c1)C1CN(C)CCC1N2C(=O)Cn1nnc(-c2ccccc2F)n1 (stereo unspecified) | inactive: -0.15%
9 | CCOCN(C(=O)Cn1c(COC)nc2ccccc21)c1c(C)cccc1CC | inactive: -6.68%
10 | Nc1cccc([As](=O)(O)c2ccccc2)c1 | inactive: 3.07%
11 | Cc1ccc2c(c1)C1C[N+](C)(CC(=O)Nc3ccccc3Cl)CCC1N2C(=O)c1ccccc1Cl (stereo unspecified) | inactive: -0.99%
12 | Cc1ccc(NC(=O)Cn2cnc3c(NCc4ccccc4)ncnc32)cc1C | inactive: -2.37%
13 | CSc1nc(N)nc2c1ncn2CC(=O)NCC1CCCO1 (stereo unspecified) | inactive: -2.3%
14 | Cn1c(=O)[nH]c(=O)c2c1nc(CN1CCN(c3cccc(Cl)c3)CC1)n2CCN1CCOCC1 | inactive: -3.32%
15 | COc1ccccc1N1CCN(C(=O)Cn2cnc3c2c(=O)n(C)c(=O)n3C)CC1 | inactive: -5.74%
16 | Cn1c(=O)c2c(ncn2CC(=O)Nc2ccc(Cl)cc2Cl)n(C)c1=O | inactive: -4.29%
17 | Cn1c(=O)c2c(ncn2CC(=O)Nc2ccccc2Sc2ccccc2)n(C)c1=O | inactive: 1.25%
18 | Cn1c(=O)c2ncn(CC(=O)NCCOCc3ccccc3Cl)c2n(C)c1=O | inactive: 8.16%
19 | O=C(Cn1c(-c2ccccc2Cl)nc2ccccc21)Nc1cccc(Cl)c1 | inactive: -2.5%

Row | Compound | activation
20 | O=C(Cn1cnc2ccccc21)Nc1cc(C(F)(F)F)ccc1N1CCOCC1 | inactive: 2.11%
21 | O=C(Cn1c(SCC(=O)N2CCc3ccccc32)nc2ccccc21)NC1CCCC1 | inactive: 8.54%
22 | CC(C)(C)NC(=O)Cn1c(SCC(=O)NCc2cccs2)nc2ccccc21 | inactive: -0.81%
23 | O=C(Cn1c(=O)n(CC2CS2)c2ccccc21)N1CCCCCC1 (stereo unspecified) | inactive: -3.46%
24 | CCn1cc(Cl)c(C(=O)Nc2nc3ccccc3n2CCN2CCCCC2)n1 | inactive: -0.35%
25 | CCCC(=O)Nc1ccc(C(=O)/C=C/c2ccc(SC)cc2)cc1 | inactive: 2.02%
26 | O=C(Cn1c(C(F)(F)F)nc2ccccc21)NCCN1CCCC1 | inactive: 3.28%
27 | c1ccc2c(c1)nc(-c1ccncc1)n2CCNc1nc(CN2CCCCC2)cs1 | inactive: -2.16%
28 | Cc1cccc(C)c1NC(=O)N1CCC(n2c(=O)[nH]c3ccccc32)CC1 | inactive: 1.17%
29 | Cc1cccc(Cn2c(=O)c3c(nc4n3CCN4Cc3ccco3)n(C)c2=O)c1 | inactive: 0.2%
30 | Cc1nn(-c2ccccc2)c2c1P(=O)(N1CCOCC1)N(C)C(c1ccccc1)=N2 (stereo unspecified) | inactive: 0.31%
31 | Cc1ccc(C(=O)OC2CN3CCC2CC3)cc1 (stereo unspecified) | inactive: -1.4%
32 | CCN(CC)C(=O)Cn1c(=O)n(C)c2ccccc21 | inactive: -3.27%
33 | CC1CCC(C(C)C)C(OP(=O)(Nc2ccccn2)c2ccccc2)C1 (stereo unspecified) | inactive: 1.21%
34 | CCN(CC)c1ccc(NC(=O)Cn2c(C(C)NC(=O)c3ccccc3)nc3ccccc32)cc1 (stereo unspecified) | inactive: -2.62%
35 | CN1CN(c2ccccc2)C2(CCN(CCCSc3ccccc3NC(=O)/C=C/c3ccccc3)CC2)C1=O | inactive: -3.57%
36 | COc1ccc(Cc2nc3ccccc3n2CC(=O)N/N=C/c2ccc(C)cc2O)cc1OC | inactive: 0.28%
37 | COc1cccc(C(=O)N2CCn3c2nc2ccccc23)c1 | inactive: 2.25%
38 | CCN(c1ccccc1)S(=O)(=O)c1ccc(OC)c(NC(=O)Cn2cnc3c2c(=O)n(C)c(=O)n3C)c1 | inactive: -1.04%

Row | Compound | activation
39 | O=C(/C=C/c1ccccc1)OC1CN2CCC1CC2 (stereo unspecified) | inactive: 1.64%
40 | COc1cccc(NC(=O)Cn2c(SCC(=O)N3CCOCC3)nc3ccccc32)c1 | inactive: 1.74%
41 | CC1CC(C)CN(Cc2nc3c(c(=O)n(C)c(=O)n3C)n2CCN2CCOCC2)C1 (stereo unspecified) | inactive: 5.73%
42 | COc1ccc(CN(C)C(=O)Cn2cnc3c(SC)nc(N)nc32)cc1OC | inactive: -2.57%
43 | O=S(=O)(c1ccc(Cl)c(Cl)c1)N1CCc2nc3ccccc3n2CC1 | inactive: 2.57%
44 | Cn1c(=O)c2c(ncn2CC(=O)N/N=C/C=C/c2ccccc2)n(C)c1=O | inactive: 0.96%
45 | CCCC1OP(=O)(Nc2ccccc2)OCC1CC (stereo unspecified) | inactive: -0.53%
46 | O=S(=O)(Nc1ccc2c(c1)nc1n2CCN(Cc2ccccc2)C1)c1ccccc1 | inactive: 7.35%
47 | O=S(=O)(c1ccc(Br)cc1)N1CCn2c(nc3ccccc32)C1 | inactive: 4.15%
48 | CCN1C(=O)CC(N2CCC(Nc3ccc(OC)cc3)CC2)C1=O (stereo unspecified) | inactive: -2.47%
49 | CC(=O)Nc1ccc(NC(=O)C2CC(=O)Nc3nc4ccccc4n32)cc1 (stereo unspecified) | inactive: -2.05%
50 | Cn1c(=O)c2ncn(CC(=O)NCCOc3ccc(C(C)(C)C)cc3)c2n(C)c1=O | inactive: 1.88%
51 | O=C(CSc1nc2ccccc2n1CC(=O)NCc1ccccc1)NCc1ccco1 | inactive: -1.14%
52 | COc1ccc(Cl)cc1NC(=O)Cn1c(NCCO)nc2ccccc21 | inactive: 5.06%
53 | O=C(Cn1cnc2c(OCc3ccccc3)ncnc21)N[C@H](CO)Cc1cc2ccccc2[nH]1 | inactive: -0.19%
54 | CC(=O)NC(SC(=S)N(C)C)C(Cl)(Cl)Cl (stereo unspecified) | inactive: 1.71%
55 | O=[N+]([O-])c1ncn(CCn2cnc([N+](=O)[O-])n2)n1 | inactive: -4.86%
56 | O=[N+]([O-])c1ccc(O)c(/C=N/Nc2ccc([N+](=O)[O-])cc2[N+](=O)[O-])c1 | inactive: 2.55%
